Data from patent US20260240847A1, “COMPOUNDS WITH ANTI-TUMOR ACTIVITY AGAINST CANCER CELLS BEARING TYROSINE KINASE INHIBITOR RESISTANT EGFR MUTATIONS” (BOARD OF REGENTS, THE UNIVERSITY OF TEXAS SYSTEM, priority 2019, published 2026).

Test system: Ba/F3 cells expressing acquired atypical mutations spanning exons 18-21
Assay: Ba/F3 cells, acquired atypical mutations, drug sensitivity
Details: 72 hours

C=CC(=O)Nc1cc(Nc2nccc(-c3cn(C)c4ccccc34)n2)c(OC)cc1N(C)CCN(C)C
drug sensitivity/resistance: resistance
